According to publication PMC6476873:

Target: P10636
Assay: co-sedimentation; pelleting assay: 10 μM Tau^RDΔK induced to aggregate with 2.5 μM heparin in PBS, 1 mM DTT, 37 °C, up to 24 h; centrifuged at 100,000×g; supernatant and pellet on SDS-PAGE, Coomassie, densitometry

B1: Tau^RDΔK, Tau repeat domain (K18, residues 244–372) with the FTDP-17 mutation ΔK280, recombinant (protein)
chain: QTAPVPMPDLKNVKSKIGSTENLKHQPGGGKVQIINKLDLSNVQSKCGSKDNIKHVPGGGSVQIVYKPVDLSKVTSKCGSLGNIHHKPGGGQVEVKSEKLDFKDRVQSKIGSLDNITHVPGGGNKKIE
percent of the protein in the insoluble pellet (aggregates): ~ 60% of the protein formed aggregates
